Test results taken from patent US8257965B2, “Arrays of biological membranes and methods and use thereof” (Corning Incorporated, priority 2001, dated 2012).

Sequences of proteins named here, by UniProt entry; tags and fusion partners are left off.
UniProt P35372, whole entry: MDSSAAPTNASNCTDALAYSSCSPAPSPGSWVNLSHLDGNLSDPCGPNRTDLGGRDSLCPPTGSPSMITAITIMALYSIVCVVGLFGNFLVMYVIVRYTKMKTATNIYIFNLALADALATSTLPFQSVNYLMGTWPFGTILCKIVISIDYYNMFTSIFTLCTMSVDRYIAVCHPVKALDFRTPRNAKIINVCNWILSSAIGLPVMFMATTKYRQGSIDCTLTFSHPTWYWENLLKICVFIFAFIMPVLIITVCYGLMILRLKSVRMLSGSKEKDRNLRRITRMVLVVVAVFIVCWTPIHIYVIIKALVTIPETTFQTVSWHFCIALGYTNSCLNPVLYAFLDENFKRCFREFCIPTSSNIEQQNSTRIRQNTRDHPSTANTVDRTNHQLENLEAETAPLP

Target: opioid receptor subtype μ (Homo sapiens, UniProt P35372)
Details: 25 nM BODIPY-FL-GTPγS, 3 μM GDP, 90 minutes, in the presence of dynorphin A

**Q.** For dynorphin A, which “increase in basal level fluorescence” value is on record?
**A.** ~2.5 fold
